Data taken from US12394803B2, “Production method of catalyst, catalyst, production method of composition, composition, electrode, manufacturing method of electrode, fuel cell, metal-air battery” (Azul Energy Inc., priority 2019, dated 2025).

In the case of Iron tetraphenylporphine [FeTPP], the “Dissolution in DMSO (solution transparent and blue)” value (0.1 g/L in DMSO, FIG. 3) is reported as “dissolved in DMSO” and the “Dissolution in THF (crystal structures seen by SEM)” value (THF, catalyst of Comparative Example 1, FIG. 8) is reported as “not dissolved in THF”.
